We go through one substance from patent EP0700301B1, “PEPTIDES AND COMPOUNDS THAT BIND TO ELAM-1” (AFFYMAX TECHNOLOGIES N.V., priority 1993, dated 1994).

The target of this assay is T1, immobilized ELAM-1 (Homo sapiens, UniProt P16581).
T1 sequence (P16581 22-554): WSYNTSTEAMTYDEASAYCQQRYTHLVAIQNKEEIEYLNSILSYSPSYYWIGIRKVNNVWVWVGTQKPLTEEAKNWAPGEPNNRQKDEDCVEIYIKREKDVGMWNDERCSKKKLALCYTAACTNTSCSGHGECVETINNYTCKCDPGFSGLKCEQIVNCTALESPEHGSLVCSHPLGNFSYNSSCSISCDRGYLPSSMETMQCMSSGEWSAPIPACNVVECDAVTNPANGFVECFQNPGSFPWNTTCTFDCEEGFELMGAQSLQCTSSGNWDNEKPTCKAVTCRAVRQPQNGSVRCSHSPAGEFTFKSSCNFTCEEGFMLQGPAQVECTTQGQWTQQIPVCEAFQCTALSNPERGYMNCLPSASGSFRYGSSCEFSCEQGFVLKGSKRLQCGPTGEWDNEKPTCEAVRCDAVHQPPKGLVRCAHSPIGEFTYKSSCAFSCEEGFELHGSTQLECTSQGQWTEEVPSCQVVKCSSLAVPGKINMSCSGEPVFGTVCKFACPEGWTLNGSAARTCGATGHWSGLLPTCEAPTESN
Kind of assay: HL60 cell adhesion assay. Details: in a truncated form comprising the complete extracellular domain (amino acids 1 through 554); made in house. The format is cell-based. On the procedure:
By comparing test wells with control wells (no receptor), one can determine whether a peptide binds to ELAM-1 specifically. Peptides found to bind specifically to ELAM-1 were then synthesized as the free peptide (no phage) and tested in an HL60 cell adhesion competition assay. The competition assay was carried out similarly to the ELISA, except that labeled HL60 cells were added in addition to the peptide (the control wells were typically of at least two types: (1) no immobilized ELAM-1; and (2) no peptide; see the Examples). Peptides that block the binding of labeled HL60 cells ELAM-1 are preferred compounds of the invention.
This example describes the results of a cell adhesion assay in which the ability of HL60 cells (a promyelocytic leukemia-60 cell clone that expresses Sle^x and is available from the ATCC) to adhere to immobilized ELAM-1 was tested in the presence of various compounds, including the ELAM-1 blocking peptide of the invention.
The assay requires HL60 cells labeled with tritiated thymidine. […]
After the test compound incubation period, 100 µL of labeled HL60 cells were added to each well, and the microtiter plate was incubated at 4°C for 30 minutes. […] After this incubation, aliquots were removed from each well and placed in scintillation vials; scintillation fluid was added to each vial; and the radioactivity in each aliquot was quantitated by LS counting. […]

In the case of monofucosyl monosialyllactose [SLe^x], the “blocking of HL60 cell binding that occurred in the absence of added compound” value (compound at about 200 µM, 4°C, Figure 1) was “did not exhibit significant blocking”. Under “concentration of 500 to 1000 µM, subsequent experiments”, the “blocking of cell adhesion” value was “does block cell adhesion”.
